For this test, the system named is HeLa cell line with the ubiquitin fusion degradation reporter UbG76V-GFP. Description: UbG76V-GFP accumulation assay.

Where two headings read alike, the source gives them in different places.

In general, EC50 refers to the concentration that produces a half-maximal response.

For `Cc1cc(OCc2nnc(SC3CCCC3)n2-c2cccnc2)ccc1-c1ccc(S(C)(=O)=O)cc1` [NMS-873], the half-maximal effective concentration (EC50) (Homo sapiens, HeLa, 1 h, read-out: Ub^G76 V-GFP EC50 (μM), 1 h) is 1.42 µM and the concentration for a half-maximal effect (EC50) (read-out: Ub^G76 V-GFP EC50 (μM), 6 h, highest concentration 40 μM) was determined as 2.1 µM.
